The results in this text go back to ChEMBL document CHEMBL6127158, “Novel Aminopyrazole Inhibitors of PDE11A for the Treatment of Alzheimer's Disease and Other Types of Dementia” (ACS Med Chem Lett, 2024).

Amino acid sequences for entries named in this document (tags omitted). A change or cut given only in a name is not applied to a line headed by its entry.
UniProt Q9HCR9: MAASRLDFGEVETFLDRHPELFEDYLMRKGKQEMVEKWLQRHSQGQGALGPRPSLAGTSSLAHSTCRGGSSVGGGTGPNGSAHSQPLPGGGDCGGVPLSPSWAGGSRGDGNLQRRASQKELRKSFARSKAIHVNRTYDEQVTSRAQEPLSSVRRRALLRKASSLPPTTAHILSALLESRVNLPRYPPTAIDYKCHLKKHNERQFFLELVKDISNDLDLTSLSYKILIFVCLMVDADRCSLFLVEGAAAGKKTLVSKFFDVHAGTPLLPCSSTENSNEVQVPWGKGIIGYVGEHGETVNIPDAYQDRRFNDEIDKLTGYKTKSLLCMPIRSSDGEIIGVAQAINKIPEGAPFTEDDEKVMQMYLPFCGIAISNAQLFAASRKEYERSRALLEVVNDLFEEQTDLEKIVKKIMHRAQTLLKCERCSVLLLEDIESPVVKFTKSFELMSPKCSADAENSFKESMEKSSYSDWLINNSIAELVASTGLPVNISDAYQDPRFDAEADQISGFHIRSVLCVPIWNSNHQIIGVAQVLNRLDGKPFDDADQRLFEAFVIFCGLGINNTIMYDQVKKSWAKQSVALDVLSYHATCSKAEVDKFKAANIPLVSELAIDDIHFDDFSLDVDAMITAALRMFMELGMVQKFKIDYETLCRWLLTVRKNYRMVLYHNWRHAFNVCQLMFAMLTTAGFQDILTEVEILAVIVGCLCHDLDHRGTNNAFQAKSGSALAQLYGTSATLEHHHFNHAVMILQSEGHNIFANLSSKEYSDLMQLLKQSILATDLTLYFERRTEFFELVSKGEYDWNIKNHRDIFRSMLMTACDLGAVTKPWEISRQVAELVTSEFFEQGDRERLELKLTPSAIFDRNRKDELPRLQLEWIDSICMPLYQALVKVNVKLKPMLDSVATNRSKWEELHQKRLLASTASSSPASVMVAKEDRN

For this experiment, the target named is Dual 3',5'-cyclic-AMP and -GMP phosphodiesterase 11A (Homo sapiens, UniProt Q9HCR9). The following applies: sf9.

Molecule `CCN(CC)C(=O)c1cc(-c2cccs2)nc2c1c(C)nn2-c1ccccc1` registered an IC50 of 420 nM.

As usually defined, the IC50 is the concentration that inhibits the measured activity by half. A lower IC50 goes with greater potency in that assay.
